Values quoted from earlier work, collected in PMC7188706 (Cancer Chemotherapy and Pharmacology, 2020).

Tested on: patients with known EGFR mutations
Conditions: cited from earlier work

COc1cc2ncnc(Nc3ccc(F)c(Cl)c3)c2cc1OCCCN1CCOCC1 [gefitinib]
tolerability (erlotinib 450 mg every 3 days or gefitinib 1000 mg every 4 days): well tolerated | median PFS (gefitinib 1000 mg every 4 days): 6 months | response rate (gefitinib 1000 mg every 4 days): 21%
